One molecule from US10538487B2, “Sulfonylureas and related compounds and use of same” (priority 2015, dated 2020) can be followed below.

Data set [1] is described as follows: Compound levels in blood plasma of mice after oral gavage (LC-MS/MS). The note with it: mouse, in vivo, 2 hour timepoint after oral gavage at 20 mg/Kg. Here is the method:
100 mL ACN and 5 μL of 10 mM carbutamide in DMSO (ACN with 135 ng/mL carbutamide MS internal standard).
A 1 mg/mL of test compound in 10 mM NH4HCO3 was prepared and diluted 10-fold to give a 100,000 ng/mL stock solution. A series of 10-fold dilutions of the 100,000 ng/mL stock solution with 10 mM NH4HCO3 gave concentrations of 10,000, 1,000, 100 and 10 ng/mL. The 100,000 ng/mL stock solution was diluted to 3:7 with 10 mM NH4HCO3 to give a concentration of 30,000 ng/mL and a series of 10-fold dilutions gave concentrations of 3,000, 300, 30 and 3 ng/mL.
20 μL of test compound-containing solution and 160 μL precipitation solution were added to 20 μL of mouse plasma in a low binding Eppendorf tube. […]
The samples were analysed on an AB Sciex 4000QTrap MS with 2 Shimadzu Nexera LC-30AD Solvent Delivery Units, Shimadzu Nexera SIL-30AC Auto-Sampler, Shimadzu Prominence DGU-20A5 Degasser, Shimadzu Prominence CBM-20A System Controller and Shimadzu Prominence CTO-20A Column Oven. […] The peak areas from the SRM data for carbutamide and test compound were analysed using the AB Sciex's Analyst software using the Quantitation Wizard. The peak area was plotted against the ng/mL concentration in 20 μL 3 to 30,000 ng/mL test compound solutions and the lower and upper range of linear response was determined. […]

Data set [2] is described as follows: in vivo. The note with it: mouse, mice, oral gavage at 20 mg/kg, read-out: Brain Concentration.

As to `O=C(Nc1c2c(cc3c1CCC3)CCC2)NS(=O)(=O)c1ccco1`, the figures for the concentration at 2 h in data set [1] and in data set [2] were 66.3 µg/mL and 1340 ng/g, respectively.
